The record followed here is patent US20090247559A1 (Exelixis, Inc., priority 2007, published 2009).

Protein sequences, listed by entry. Tags and fused reporters are not part of them.
UniProt P68400, whole entry: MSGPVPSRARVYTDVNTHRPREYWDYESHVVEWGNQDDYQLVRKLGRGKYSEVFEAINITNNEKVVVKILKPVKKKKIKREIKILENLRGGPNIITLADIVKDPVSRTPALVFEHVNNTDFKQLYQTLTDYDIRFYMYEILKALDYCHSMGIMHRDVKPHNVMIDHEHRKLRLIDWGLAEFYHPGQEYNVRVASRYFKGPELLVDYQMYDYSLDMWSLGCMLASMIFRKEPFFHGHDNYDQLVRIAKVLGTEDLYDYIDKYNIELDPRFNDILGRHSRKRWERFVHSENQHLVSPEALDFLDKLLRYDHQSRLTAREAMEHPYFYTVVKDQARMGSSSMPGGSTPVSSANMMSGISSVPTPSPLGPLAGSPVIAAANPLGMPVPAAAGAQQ
UniProt P67870, whole entry partner: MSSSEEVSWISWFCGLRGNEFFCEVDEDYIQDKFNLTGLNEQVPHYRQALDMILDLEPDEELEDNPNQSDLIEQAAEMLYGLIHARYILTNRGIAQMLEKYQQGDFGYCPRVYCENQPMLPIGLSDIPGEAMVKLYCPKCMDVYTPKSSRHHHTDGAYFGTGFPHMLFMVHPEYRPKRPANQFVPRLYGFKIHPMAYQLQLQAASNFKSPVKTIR

The target of one experiment is CK2 (Homo sapiens, UniProt P68400). Kind of experiment: CK2 inhibition, biochemical chemiluminescence holoenzyme assay (Kinase Glo, IC50 determination). The settings on record: read-out: CK2 IC50 (Activity C); Table 1 activity class; symbol given only if active; tested form: HCl. In general terms: Kinase-Glo measures the ATP left after a reaction by luminescence.
In experiment [1] the target is PIM (PIM-1, PIM-2, and/or PIM-3).

By IC50 is commonly meant the concentration that inhibits the measured activity by half. For `O=C1N(Cc2nc3c(oc4ccc(Br)cc43)c(=O)[nH]2)CN(c2ccccc2)C12CCNCC2`, the IC50 (at CK2; in experiment [1]) was < 10 µM throughout.
